The target of one series is hPPARα (Homo sapiens, UniProt Q07869). As to the kind of experiment: PPARα luciferase cell reporter assay (Indigo Biosciences). The settings on record: hPPARα vs hPPARδ and hPPARγ, in words.
The next series concerns PPARα. The series is described as follows: Western blot analysis of PPARα expression in 661W cells. The settings on record: 24 h, 10 µM, 50 µM and 100 µM. In general terms: In western blotting, separated proteins are transferred to a membrane and probed.
Series [1] concerns human retinal capillary endothelial cells (HRCEC). The series is described as follows: in vitro wound healing assay. Conditions: 10 h and 24 h incubation.
The next series has as its system retinal vascular leakage. As to the kind of experiment: STZ-rat model of diabetic retinopathy, retinal permeability.
Series [2] can be described thus: STZ-rat model of diabetic retinopathy, liver phenotype and tolerability.

Sequences of proteins named here, by UniProt entry; tags and fusion partners are left off.
UniProt Q07869, whole entry: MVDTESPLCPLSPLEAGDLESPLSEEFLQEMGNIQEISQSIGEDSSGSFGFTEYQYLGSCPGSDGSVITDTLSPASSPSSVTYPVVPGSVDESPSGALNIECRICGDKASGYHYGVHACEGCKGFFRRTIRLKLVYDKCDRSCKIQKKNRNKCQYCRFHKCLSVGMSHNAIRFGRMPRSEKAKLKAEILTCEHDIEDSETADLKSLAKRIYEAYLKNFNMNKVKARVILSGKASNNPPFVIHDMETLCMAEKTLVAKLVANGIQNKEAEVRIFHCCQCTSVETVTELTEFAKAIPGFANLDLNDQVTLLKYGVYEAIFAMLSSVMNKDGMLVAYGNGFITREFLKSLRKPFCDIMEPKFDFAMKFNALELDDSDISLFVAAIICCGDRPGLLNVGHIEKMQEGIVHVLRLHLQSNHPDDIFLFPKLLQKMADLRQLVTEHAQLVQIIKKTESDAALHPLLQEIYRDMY

Regarding `COc1ccc(COc2ccc(CNc3cccc(C(=O)O)c3)c(OCc3ccc(OC)cc3)c2)cc1`, the isoform selectivity profile result on hPPARα is reported as “maintains the selectivity”.
For the molecule `COc1ccc(COc2ccc(CNc3cccc(C(=O)O)c3)cc2)cc1`, the “expression of PPARα” value in the series with PPARα is on record as “induced the expression of PPARα in a dose-dependent manner”. The wound closure result in series [1] was “inhibits wound closure in a dose-dependent fashion”. Further, the retinal vascular leakage result in the series on retinal vascular leakage (diabetic rats (STZ 55 mg/kg), daily i.p. injection for 26-28 days) was “reduces retinal vascular leakage in diabetic rats”. In addition, the bioavailability result in the series with retinal vascular leakage (inferred from efficacy after systemic administration) is recorded as “is bioavailable”. Moreover, the safety profile result in series [2] (after daily injection for one-month) is on record as “no observable toxicity”. The hepatomegaly result in series [2] (diabetic rats, daily i.p. injection for 26-28 days) is recorded as “seems to lack signs of hepatomegaly”.
Take `COc1ccc(COc2ccc(CNc3cccc(OC(C)(C)C(=O)O)c3)c(OCc3ccc(OC)cc3)c2)cc1`: on hPPARα, the isoform selectivity profile result was “pan-agonist profile was maintained”.

(Values after EP3765450B1, “AGONISTS OF PEROXISOME PROLIFERATOR-ACTIVATED RECEPTOR ALPHA AND METHODS OF USE” (dated 2026).)
